Data: PubChem BioAssay AID588475 (Sanford-Burnham Center for Chemical Genomics, 2011)
This is a selection; strong and weak results do not stand in their true shares. Some salts or complexes appear as unconnected parts, following the source record. Active and inactive are the calls of the source.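 The calls were made as follows: active = inhibition of the ligand-induced calcium signal above about 50% at the single tested concentration (limit read from the data); inactive = the rest.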

experiment: antagonists of CRF-BP/CRF-R2 complex, primary screen, cell-based, HEK293, calcium dye fluorescence, uHTS (AID 588475); conditions: CRF-induced calcium fluorescence, at 11.8 µM, stronger effect = higher value

| Structure (SMILES) | inhibition |
| --- | --- |
| Cc1cc(C)cc(OP(C)(=O)Nc2cccc(C(F)(F)F)c2)c1 (stereo not drawn) | inactive: -35.2% |
| O=C1C(O)=C([N+](=O)[O-])C(=O)C(O)=C1[N+](=O)[O-] | inactive: 2.42% |
| COc1ccc(OP(C)(=O)Nc2ccccc2Br)cc1 (stereo not drawn) | inactive: -26.3% |
| COc1ccccc1OP(C)(=O)Nc1ccc(C)c(C)c1 (stereo not drawn) | inactive: -4.81% |
| CP(=O)(Nc1ccc(Cl)cc1Cl)Oc1ccccc1 (stereo not drawn) | inactive: -12% |
| CCCCCCCCCCCCCCCC1C[N+](C)(C)CCOP(C)(=O)O1 (stereo not drawn) | inactive: -9.89% |
| CP(=O)(OCCOc1ccccc1)OCCOc1ccccc1 | inactive: -9.61% |
| COc1ccccc1OP(C)(=O)Nc1ccc(Br)cc1 (stereo not drawn) | inactive: -10.6% |
| CN(C)CCOC(=O)C(O)(c1ccccc1)C1CCCC1 (stereo not drawn) | inactive: 8.26% |
| COc1ccc(OP(C)(=O)Nc2ccccn2)cc1 (stereo not drawn) | inactive: 15.5% |
| Cc1c(NP(C)(=O)Oc2ccc(C(C)C)cc2)c(=O)n(-c2ccccc2)n1C (stereo not drawn) | inactive: 0.17% |
| O=[N+]([O-])c1cc([N+](=O)[O-])c(Nc2ccccn2)c([N+](=O)[O-])c1 | inactive: 3.62% |
| CCc1ccc(OP(C)(=O)O)cc1 | inactive: -2.39% |
| COc1ccccc1OP(C)(=O)Nc1ccc(C)cc1C (stereo not drawn) | inactive: -13.2% |
| CP(=O)(Nc1ccccn1)Oc1ccccc1 (stereo not drawn) | inactive: -0.84% |
| COc1ccc(OP(C)(=O)Nc2ccc(Br)cc2)cc1 (stereo not drawn) | inactive: -43.4% |
| CCN(CC)CC(O)COC(=O)C(O)(c1ccccc1)C1CCCCC1 (stereo not drawn) | inactive: -22.9% |
| CCc1ccc(OP(C)(=O)Nc2cccnc2)cc1 (stereo not drawn) | inactive: 1.91% |
| CP(=O)(Oc1ccccc1)N1CCOC1=O (stereo not drawn) | inactive: -4.06% |
| O=C(OCCCN1CCCC1)C(O)(c1ccccc1)C1CCCCC1 (stereo not drawn) | inactive: -4.34% |

| Structure (SMILES) | inhibition |
| --- | --- |
| COc1ccccc1OP(C)(=O)Nc1c(C)n(C)n(-c2ccccc2)c1=O (stereo not drawn) | inactive: 23.6% |
| CP(=O)(Nc1ccc(Cl)cc1)Oc1ccc(F)cc1 (stereo not drawn) | inactive: -9.69% |
| COc1ccccc1OP(C)(=O)Nc1ccccc1Br (stereo not drawn) | inactive: -1.33% |
| CC(C)(C)c1ccc(OP(C)(=O)O)cc1 | inactive: 3.41% |
| CN(C)C(=O)c1c([N+](=O)[O-])cc([N+](=O)[O-])cc1[N+](=O)[O-] | inactive: 10.6% |
| Nc1ccc2c(ccc3cccnc32)n1.O=[N+]([O-])c1cc([N+](=O)[O-])c(O)c([N+](=O)[O-])c1 | inactive: 8.87% |
| CP(=O)(OC12CC3CC(CC(C3)C1)C2)OC12CC3CC(CC(C3)C1)C2 | inactive: -68.7% |
| CCOC(=O)c1ccc(NP(C)(=O)Oc2ccc(Cl)cc2)cc1 (stereo not drawn) | inactive: -21.9% |
| COc1ccc(OP(C)(=O)Nc2cccc(Br)c2)cc1 (stereo not drawn) | inactive: -19.9% |
| COc1ccc(NP(C)(=O)Oc2ccccc2OC)cc1 (stereo not drawn) | inactive: -82.2% |
| CN(C)CCOC(=O)C(O)(c1ccccc1)C1CCCCC1 (stereo not drawn) | inactive: 2.55% |
| Cc1cc(-c2cccc3ccccc23)c(C)cn1.O=[N+]([O-])c1cc([N+](=O)[O-])c(O)c([N+](=O)[O-])c1 | inactive: 27.5% |
| O=[N+]([O-])c1cc([N+](=O)[O-])c(NCC2CCS(=O)(=O)C2)c([N+](=O)[O-])c1 (stereo not drawn) | inactive: 6.09% |
| O=[N+]([O-])c1ccc(OP2(=O)COCCO2)cc1 (stereo not drawn) | inactive: -12.2% |
| Cc1c(C(c2ccc3c(c2)OCO3)c2c(C)n(C)n(-c3ccccc3)c2=O)c(=O)n(-c2ccccc2)n1C.O=[N+]([O-])c1cc([N+](=O)[O-])c(O)c([N+](=O)[O-])c1 | inactive: -2.68% |
| CP(=O)(Nc1ccc(SC(F)(F)F)cc1)Oc1ccc(F)cc1 (stereo not drawn) | inactive: -25% |
| CCOP(C)(=S)SCC(=O)NC(C)(CC)C(=O)O (stereo not drawn) | inactive: 1.36% |
| CP(=O)(Nc1ccc2c(c1)OCCO2)Oc1ccccc1 (stereo not drawn) | inactive: -8.87% |
| Cc1ccccc1NP(C)(=O)Nc1ccccc1C | inactive: 10.2% |
| O=[N+]([O-])c1cc([N+](=O)[O-])c(Nc2ccc(Cl)cc2)c([N+](=O)[O-])c1 | active: 67.3% |

| Structure (SMILES) | inhibition |
| --- | --- |
| CC(C)c1ccc(OP(C)(=O)Nc2ccc(SC(F)(F)F)cc2)cc1 (stereo not drawn) | inactive: -37.9% |
| CP(=O)(Nc1ccccc1F)Oc1ccccc1 (stereo not drawn) | inactive: 2.52% |
| O=C(OCCN1CCN(CCOCc2ccccc2)CC1)C(O)(c1ccccc1)c1ccccc1 | inactive: 16.9% |
| O=C(OC1CN2CCC1CC2)c1ccc([N+](=O)[O-])cc1 (stereo not drawn) | inactive: 17.6% |
| COc1ccc2c(c1O)-c1c(O)c(OC)cc3c1[C@H](C2)[N+](C)(C)CC3.O=[N+]([O-])c1cc([N+](=O)[O-])c([O-])c([N+](=O)[O-])c1[O-] | inactive: 2.88% |
| COc1ccc(OP(C)(=O)Nc2ccc(SC(F)(F)F)cc2)cc1 (stereo not drawn) | inactive: -20.1% |
| CCOC(=O)c1ccc(NP(C)(=O)Oc2ccc(F)cc2)cc1 (stereo not drawn) | inactive: 8.7% |
| CCN(CC)CCCOC(=O)C(O)(c1ccccc1)C1CCCCC1 (stereo not drawn) | inactive: 0.42% |
| Cc1c([N+](=O)[O-])cc([N+](=O)[O-])c(Br)c1[N+](=O)[O-] | inactive: 12.3% |
| O=[N+]([O-])c1cc([N+](=O)[O-])c(OC2CCCCC2O)c([N+](=O)[O-])c1 (stereo not drawn) | inactive: -3.01% |
| CCCCCOc1ccc(NP(C)(=O)Oc2ccc(Cl)cc2Cl)cc1 (stereo not drawn) | inactive: -32.2% |
| CP(=O)(Nc1ccccc1)Oc1ccc(F)cc1 (stereo not drawn) | inactive: -0.76% |
| O=C(O)c1cccc(Nc2c([N+](=O)[O-])cc([N+](=O)[O-])cc2[N+](=O)[O-])c1 | inactive: 1.13% |
| CC1=NCCc2c1[nH]c1ccccc21.O=[N+]([O-])c1cc([N+](=O)[O-])c(O)c([N+](=O)[O-])c1 | inactive: 2.4% |
| COc1ccccc1OP(C)(=O)Nc1cccc(Br)c1 (stereo not drawn) | inactive: -16.7% |
| Cc1cc(C)cc(OP(C)(=O)Nc2ccc(C)cc2C)c1 (stereo not drawn) | inactive: -20.6% |
| CCOC(=O)c1ccc(NP(C)(=O)Oc2cc(C)cc(C)c2)cc1 (stereo not drawn) | inactive: -28.4% |
| Cc1cc(C)cc(OP(C)(=O)Nc2ccccn2)c1 (stereo not drawn) | inactive: -18.1% |
